According to patent publication US20180009876A1:

What was measured:
[1] = target: MABSELECT SURE® Protein A media; experiment: operating dynamic binding capacity; 20 mM sodium phosphate pH 7.2, 0 mM NaCl; residence time 4 min, 300 cm/h
[2] = target: MABSELECT SURE® Protein A media; experiment: operating dynamic binding capacity; 20 mM sodium phosphate pH 7.2, 50 mM NaCl; residence time 4 min, 300 cm/h
[3] = target: MABSELECT SURE® Protein A media; experiment: operating dynamic binding capacity; 20 mM sodium phosphate pH 7.2, 100 mM NaCl; residence time 4 min, 300 cm/h
[4] = target: MABSELECT SURE® Protein A media; experiment: operating dynamic binding capacity; 20 mM sodium phosphate pH 7.2, 150 mM NaCl; residence time 4 min, 300 cm/h
[5] = target: MABSELECT SURE® Protein A media; experiment: dynamic binding capacity at 10% breakthrough; 20 mM sodium phosphate pH 7.2, 0 mM NaCl; residence time 4 min, 300 cm/h
[6] = target: MABSELECT SURE® Protein A media; experiment: Protein A resin screen, column loading of adalimumab; 20 mM sodium phosphate, 150 mM NaCl, pH 7.2; residence time 2 min
[7] = target: PROSEP® Ultra Plus Protein A media; experiment: as above
UNOsphere SUPrA™ media = experiment: as above
[8] = target: MABSELECT SURE® Protein A media; experiment: dynamic binding capacity at 10% breakthrough; 20 mM sodium phosphate pH 7.2, 50 mM NaCl; residence time 4 min, 300 cm/h
[9] = target: MABSELECT SURE® Protein A media; experiment: dynamic binding capacity at 10% breakthrough; 20 mM sodium phosphate pH 7.2, 100 mM NaCl; residence time 4 min, 300 cm/h
[10] = target: MABSELECT SURE® Protein A media; experiment: dynamic binding capacity at 10% breakthrough; 20 mM sodium phosphate pH 7.2, 150 mM NaCl; residence time 4 min, 300 cm/h
[11] = target: ABSOLUTe® High Cap Protein A media; experiment: Protein A resin screen, column loading of adalimumab; 20 mM sodium phosphate, 150 mM NaCl, pH 7.2; table notes residence time τ = 3 min

Operating DBC [1]: 60.6 g/L
Operating DBC [2]: 59 g/L
Operating DBC [3]: 54.9 g/L
Operating DBC [4]: 43.6 g/L
DBC @ 10% BT [5]: 51.5 g/L
Measured DBC (dynamic binding capacity) [6]: 35 g/L
Measured DBC (dynamic binding capacity) [7]: 39 g/L
Measured DBC (dynamic binding capacity) (UNOsphere SUPrA™ media): 28 g/L
DBC @ 10% BT [8]: 50 g/L
DBC @ 10% BT [9]: 46.7 g/L
DBC @ 10% BT [10]: 37.1 g/L
Measured DBC (dynamic binding capacity) [11]: 58 g/L
Substance: adalimumab (antibody)
